In the CATMoS acute toxicity set (Mansouri et al. 2021):

Tests used:
rat acute oral toxicity = conditions: in vivo
[1] = GHS categories as the set defines them, by LD50: 1 up to 5, 2 up to 50, 3 up to 300, 4 up to 2000, 5 above 2000 mg/kg; conditions: rat; in vivo; po
[2] = Nontoxic (NT; LD50>2,000mg/kg vs. all others); conditions: rat; in vivo; po

| Structure (SMILES) | LD50 (rat acute oral toxicity) | GHS category [1] | further results |
| --- | --- | --- | --- |
| O=[N+]([O-])OCCO[N+](=O)[O-] | 460 mg/kg |  |  |
| COP(=S)(OC)c1ccccc1 |  | 4 |  |
| CCOP(=S)(OCC)c1ccccc1 |  | 4 |  |
| O=[N+]([O-])N1CN([N+](=O)[O-])CN([N+](=O)[O-])CN([N+](=O)[O-])C1 | 5500 mg/kg |  |  |
| O=[N+]([O-])c1cc([N+](=O)[O-])c2no[n+]([O-])c2c1 |  |  | nontoxic [2]: FALSE (not_nontoxic) |
| O=c1[nH]c2ccccc2n1CCCN1CCC(n2c(=O)[nH]c3ccccc32)CC1 |  | 5 |  |
| CCC1(C)OOC(C)(CC)OOC(C)(CC)OO1 (centres undefined) |  | 5 |  |
| ClCCOP(OCCCl)OCCCl | 100 mg/kg |  |  |
| [C-]#N.[K+] | 5 mg/kg |  |  |
| O=[N+]([O-])c1cc([N+](=O)[O-])c(Nc2nc(Nc3c([N+](=O)[O-])cc([N+](=O)[O-])cc3[N+](=O)[O-])c([N+](=O)[O-])cc2[N+](=O)[O-])c([N+](=O)[O-])c1 |  | 5 |  |
| CCOP(=S)(CC)Oc1cc(Cl)c(Cl)cc1Cl (centres undefined) | 15 mg/kg |  |  |
| CC(=O)N1CN([N+](=O)[O-])CN([N+](=O)[O-])CN([N+](=O)[O-])C1 |  | 5 |  |
| Cc1ccc([N+](=O)[O-])cc1[N+](=O)[O-] | 269 mg/kg |  |  |
| O=c1nc([N+](=O)[O-])[nH][nH]1 |  | 5 |  |
| O=[N+]([O-])N1CN([N+](=O)[O-])CN([N+](=O)[O-])C1 | 100 mg/kg |  |  |
| O=[N+]([O-])OCCOCCO[N+](=O)[O-] | 753 mg/kg |  |  |
| CCC(C)(OO)OOC(C)(CC)OO (centres undefined) | 484 mg/kg |  |  |
| Cc1cc([N+](=O)[O-])ccc1[N+](=O)[O-] | 517 mg/kg |  |  |
| Cc1c([N+](=O)[O-])cc([N+](=O)[O-])cc1[N+](=O)[O-] | 607 mg/kg |  |  |
| CCOP(O)OCC | 3500 mg/kg |  |  |
| CCOP(OCC)OCC | 1840 mg/kg |  |  |
| O=C(O)C1(O)c2ccccc2-c2ccccc21 |  | 5 |  |
| O=[N+]([O-])OC[C@H]1O[C@H](O)[C@H](O[N+](=O)[O-])[C@@H](O[N+](=O)[O-])[C@@H]1O |  | 5 |  |
| COP(OC)OC | 1600 mg/kg |  |  |
